Reference: ChEMBL document CHEMBL6134854, “Development of Hydrazide-Based HDAC6 Selective Inhibitors for Treating NLRP3 Inflammasome-Related Diseases” (J Med Chem, 2025)
The source made the active and inactive calls. The calls are words filed in the database; no cut-off is given here.

Amino acid sequences for entries named in this document (tags omitted).
UniProt O09106, whole entry: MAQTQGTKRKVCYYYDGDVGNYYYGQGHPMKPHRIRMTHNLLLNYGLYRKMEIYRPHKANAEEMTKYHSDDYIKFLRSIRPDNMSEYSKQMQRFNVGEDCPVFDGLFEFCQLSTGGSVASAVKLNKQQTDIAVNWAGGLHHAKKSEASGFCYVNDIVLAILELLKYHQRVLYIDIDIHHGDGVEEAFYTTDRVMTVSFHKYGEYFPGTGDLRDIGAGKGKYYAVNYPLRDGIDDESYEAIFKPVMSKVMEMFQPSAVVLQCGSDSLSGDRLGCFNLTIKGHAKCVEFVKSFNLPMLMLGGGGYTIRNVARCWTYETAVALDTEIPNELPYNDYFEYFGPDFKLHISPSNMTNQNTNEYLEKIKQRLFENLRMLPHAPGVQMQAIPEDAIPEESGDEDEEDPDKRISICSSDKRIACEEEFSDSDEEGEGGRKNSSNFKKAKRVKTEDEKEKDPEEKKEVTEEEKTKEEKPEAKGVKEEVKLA
UniProt P70288, whole entry: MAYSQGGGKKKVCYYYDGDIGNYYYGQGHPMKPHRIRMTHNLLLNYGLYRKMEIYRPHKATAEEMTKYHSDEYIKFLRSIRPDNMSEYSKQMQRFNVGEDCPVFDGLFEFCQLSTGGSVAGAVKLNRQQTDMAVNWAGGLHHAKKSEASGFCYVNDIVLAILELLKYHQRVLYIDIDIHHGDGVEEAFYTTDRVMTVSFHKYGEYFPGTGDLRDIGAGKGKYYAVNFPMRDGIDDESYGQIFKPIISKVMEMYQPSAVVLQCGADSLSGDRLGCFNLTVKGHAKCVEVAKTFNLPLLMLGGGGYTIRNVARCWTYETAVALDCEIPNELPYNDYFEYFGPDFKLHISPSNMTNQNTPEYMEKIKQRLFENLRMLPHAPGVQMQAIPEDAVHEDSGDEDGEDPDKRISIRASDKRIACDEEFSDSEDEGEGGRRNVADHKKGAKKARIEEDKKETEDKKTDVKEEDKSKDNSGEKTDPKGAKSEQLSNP

Experiments:
[1] = tested on: Mus musculus; test: Anti-inflammatory activity in DSS-induced colitis female BALB/C mouse model assessed as decrease in disease activity index score at 100 mg/kg, po administered every day for 8 days; type: functional, organism-based; settings: time 8.0 day
[2] = biological target: T1, Protein deacetylase HDAC6 (Mus musculus) (UniProt Q9Z2V5); test: Inhibition of HDAC6 in mouse J774.A1 cells assessed as increase in accumulation of acetylated alpha-tubulin incubated for 24 hrs by Western blot analysis; type: cell-based; settings: dose 0.1-9 µM
T1 sequence (whole entry): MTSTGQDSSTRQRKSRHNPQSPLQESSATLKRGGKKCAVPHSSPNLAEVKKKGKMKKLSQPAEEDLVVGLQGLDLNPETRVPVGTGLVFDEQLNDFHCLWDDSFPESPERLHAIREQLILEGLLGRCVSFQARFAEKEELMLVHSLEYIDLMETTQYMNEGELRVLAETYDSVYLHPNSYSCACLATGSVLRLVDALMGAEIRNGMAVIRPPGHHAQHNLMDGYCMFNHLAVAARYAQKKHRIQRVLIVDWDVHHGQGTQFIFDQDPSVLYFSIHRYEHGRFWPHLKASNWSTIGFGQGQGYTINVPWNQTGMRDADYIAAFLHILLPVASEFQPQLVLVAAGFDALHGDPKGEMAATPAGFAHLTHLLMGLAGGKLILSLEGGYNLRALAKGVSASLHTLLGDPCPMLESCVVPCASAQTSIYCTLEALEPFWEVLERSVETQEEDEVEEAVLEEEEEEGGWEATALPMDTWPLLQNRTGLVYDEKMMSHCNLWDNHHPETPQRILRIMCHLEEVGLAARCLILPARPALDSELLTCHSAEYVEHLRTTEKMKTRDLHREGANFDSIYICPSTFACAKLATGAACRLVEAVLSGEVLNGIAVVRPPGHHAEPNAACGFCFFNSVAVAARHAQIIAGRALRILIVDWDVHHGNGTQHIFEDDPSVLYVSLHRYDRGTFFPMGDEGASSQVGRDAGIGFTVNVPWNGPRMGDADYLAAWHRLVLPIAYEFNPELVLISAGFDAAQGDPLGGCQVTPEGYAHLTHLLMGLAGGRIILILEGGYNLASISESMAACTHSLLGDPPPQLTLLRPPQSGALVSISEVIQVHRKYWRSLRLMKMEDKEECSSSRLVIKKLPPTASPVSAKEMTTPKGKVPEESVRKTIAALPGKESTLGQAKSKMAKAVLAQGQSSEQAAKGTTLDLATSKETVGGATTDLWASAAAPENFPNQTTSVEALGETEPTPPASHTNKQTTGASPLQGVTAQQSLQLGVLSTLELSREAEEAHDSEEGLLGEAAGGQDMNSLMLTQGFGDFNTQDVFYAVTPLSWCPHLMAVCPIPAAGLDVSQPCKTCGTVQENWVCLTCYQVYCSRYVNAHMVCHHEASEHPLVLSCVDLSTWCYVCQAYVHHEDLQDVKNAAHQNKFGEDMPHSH

[3] = biological target: Histone deacetylase 1 (Mus musculus) (UniProt O09106); test: Inhibition of HDAC1 in mouse J774.A1 cells assessed as increase in acetylated histone H3 level at 0.1 to 9 uM incubated for 24 hrs by Western blot analysis; type: cell-based; settings: dose 0.1-9 µM
[4] = biological target: Histone deacetylase 1 (Mus musculus) (UniProt O09106); test: Inhibition of HDAC1 in mouse J774.A1 cells assessed as increase in acetylated histone H4 level at 0.1 to 9 uM incubated for 24 hrs by Western blot analysis; type: cell-based; settings: dose 0.1-9 µM
[5] = biological target: Histone deacetylase 2 (Mus musculus) (UniProt P70288); test: Inhibition of HDAC2 in mouse J774.A1 cells assessed as increase in acetylated histone H3 level at 0.1 to 9 uM incubated for 24 hrs by Western blot analysis; type: cell-based; settings: dose 0.1-9 µM
[6] = biological target: Histone deacetylase 2 (Mus musculus) (UniProt P70288); test: Inhibition of HDAC2 in mouse J774.A1 cells assessed as increase in acetylated histone H4 level at 0.1 to 9 uM incubated for 24 hrs by Western blot analysis; type: cell-based; settings: dose 0.1-9 µM
[7] = biological target: T2, Histone deacetylase 3 (Mus musculus) (UniProt O88895); test: Inhibition of HDAC3 in mouse J774.A1 cells assessed as increase in acetylated histone H3 level at 0.1 to 9 uM incubated for 24 hrs by Western blot analysis; type: cell-based; settings: dose 0.1-9 µM
T2 sequence (whole entry): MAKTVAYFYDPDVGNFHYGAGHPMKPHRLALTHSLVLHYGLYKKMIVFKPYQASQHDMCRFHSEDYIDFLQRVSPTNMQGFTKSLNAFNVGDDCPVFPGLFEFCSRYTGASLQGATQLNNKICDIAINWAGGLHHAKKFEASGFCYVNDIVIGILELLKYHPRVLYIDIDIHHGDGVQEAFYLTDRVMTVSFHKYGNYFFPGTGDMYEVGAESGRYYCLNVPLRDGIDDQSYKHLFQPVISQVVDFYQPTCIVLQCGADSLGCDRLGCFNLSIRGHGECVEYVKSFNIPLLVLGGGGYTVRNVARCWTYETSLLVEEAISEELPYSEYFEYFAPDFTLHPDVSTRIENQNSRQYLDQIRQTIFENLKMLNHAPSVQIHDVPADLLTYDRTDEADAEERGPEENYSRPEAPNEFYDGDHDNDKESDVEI

[8] = biological target: T2, Histone deacetylase 3 (Mus musculus); test: Inhibition of HDAC3 in mouse J774.A1 cells assessed as increase in acetylated histone H4 level at 0.1 to 9 uM incubated for 24 hrs by Western blot analysis; type: cell-based; settings: dose 0.1-9 µM
[9] = biological target: Histone deacetylase 1 (Mus musculus) (UniProt O09106); test: Inhibition of HDAC1 in mouse J774.A1 cells assessed as increase in acetylated histone H3 level at 3 to 9 uM incubated for 24 hrs by Western blot analysis; type: cell-based; settings: dose 3-9 µM
[10] = biological target: Histone deacetylase 1 (Mus musculus) (UniProt O09106); test: Inhibition of HDAC1 in mouse J774.A1 cells assessed as increase in acetylated histone H4 level at 3 to 9 uM incubated for 24 hrs by Western blot analysis; type: cell-based; settings: dose 3-9 µM
[11] = biological target: Histone deacetylase 2 (Mus musculus) (UniProt P70288); test: Inhibition of HDAC2 in mouse J774.A1 cells assessed as increase in acetylated histone H3 level at 3 to 9 uM incubated for 24 hrs by Western blot analysis; type: cell-based; settings: dose 3-9 µM
[12] = biological target: Histone deacetylase 2 (Mus musculus) (UniProt P70288); test: Inhibition of HDAC2 in mouse J774.A1 cells assessed as increase in acetylated histone H4 level at 3 to 9 uM incubated for 24 hrs by Western blot analysis; type: cell-based; settings: dose 3-9 µM
[13] = biological target: T2, Histone deacetylase 3 (Mus musculus); test: Inhibition of HDAC3 in mouse J774.A1 cells assessed as increase in acetylated histone H3 level at 3 to 9 uM incubated for 24 hrs by Western blot analysis; type: cell-based; settings: dose 3-9 µM
[14] = biological target: T2, Histone deacetylase 3 (Mus musculus); test: Inhibition of HDAC3 in mouse J774.A1 cells assessed as increase in acetylated histone H4 level at 3 to 9 uM incubated for 24 hrs by Western blot analysis; type: cell-based; settings: dose 3-9 µM
[15] = tested on: Mus musculus; test: Anti-inflammatory activity against LPS-induced acute peritonitis male C57BL/6J mouse model assessed as reduction in IL-1beta level in serum at 20 mg/kg, po measured after 12 hrs by ELISA; type: functional, organism-based
[16] = tested on: Mus musculus; test: Anti-inflammatory activity against LPS-induced acute peritonitis male C57BL/6J mouse model assessed as reduction in IL-1beta level in serum at 40 mg/kg, po measured after 12 hrs by ELISA; type: functional, organism-based
[17] = tested on: J774.A1; test: Antiproliferative activity against mouse J774.A1 cells assessed as inhibition of cell growth incubated for 48 hrs by resazurin reagent based assay; type: functional

Nc1ccc(O)c(C(=O)O)c1
Activity [1]: Active

CCNNC(=O)c1cc(F)c(CN2c3ccccc3C=Cc3ccncc32)cc1F
inhibition [2]: Dose-dependent-effect
inhibition [3]: inactive
inhibition [4]: inactive
inhibition [5]: inactive
inhibition [6]: inactive
inhibition [7]: inactive
inhibition [8]: inactive

CCNNC(=O)c1ccc(CN2c3ccccc3C=Cc3ccncc32)c(F)c1
inhibition [2]: Dose-dependent-effect
inhibition [9]: Active
inhibition [10]: Active
inhibition [11]: Active
inhibition [12]: Active
inhibition [13]: Active
inhibition [14]: Active

CCNNC(=O)c1ccc(CN2c3ccccc3C=Cc3ccncc32)cc1
inhibition [2]: Dose-dependent-effect
inhibition [9]: Active
inhibition [10]: Active
inhibition [11]: Active
inhibition [12]: Active
inhibition [13]: Active
inhibition [14]: Active
Activity [15]: Active
Activity [16]: inactive

O=C(CCCCCCNC(=O)c1cnc(N(c2ccccc2)c2ccccc2)nc1)NO [RICOLINOSTAT]
Activity [17]: Active
